Data as given in patent US10766882B2, “1,2-naphthoquinone based derivative and method of preparing the same” (YUNGJIN PHARM. CO., LTD., priority 2013, dated 2020).

Protein sequences, listed by entry. Tags and fused reporters are not part of them.
UniProt P15559, whole entry, species assumed: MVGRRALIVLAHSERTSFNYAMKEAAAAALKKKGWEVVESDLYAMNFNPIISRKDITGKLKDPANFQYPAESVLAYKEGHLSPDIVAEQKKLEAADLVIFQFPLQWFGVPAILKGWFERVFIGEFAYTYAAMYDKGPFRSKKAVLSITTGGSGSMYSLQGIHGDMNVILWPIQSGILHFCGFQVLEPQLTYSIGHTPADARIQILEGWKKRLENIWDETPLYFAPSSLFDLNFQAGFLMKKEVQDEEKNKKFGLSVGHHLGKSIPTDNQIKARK

target: NQO1 protein (Homo sapiens, UniProt P15559); assay: NQO1 activity measurement (cytochrome C reduction); type: biochemical; settings: 5 ng NQO1 protein, 200 μM NADH, 77 μM cytochrome C, 37° C., absorbance 550 nm for 10 minutes
Description: An enzyme reaction solution included 25 mM Tris/HCl (pH 7.4), 0.14% bovine serum albumin, 200 μM NADH, 77 μM cytochrome C, and 5 ng of NQO1 protein. Enzymatic reaction was initiated by adding NADH and performed at 37° C. In this regard, a reaction rate was measured by observing absorbance, which was increased due to reduction of cytochrome C, at 550 nm for 10 minutes and NQO1 activity was represented as an amount of reduced cytochrome C [nmol cytochrome C reduced/min/μg protein].
Extinction coefficient for cytochrome C:21.1 mmol/L/cm=21.1 μmol/ml/cm

Row | SMILES | NQO1 activity (5 μM, [nmol cytochrome C reduced/min/μg protein])
1 | CC(C)c1nc2c(n1CCCN1CCOCC1)C(=O)C(=O)c1ccccc1-2 [Example 58, 2-isopropyl-3-(3-morpholinopropyl)-3H-naphtho[2,1-d]imidazole-4,5-dione] | 53.4 nmol cytochrome C reduced/min/μg protein
2 | CC(C)c1nc2c(n1CCCN(C)C)C(=O)C(=O)c1ccccc1-2 [Example 56, 3-(3-(dimethylamino)propyl)-2-isopropyl-3H-naphtho[2,1-d]imidazole-4,5-dione] | 24.6 nmol cytochrome C reduced/min/μg protein
3 | CC(C)c1nc2c(n1CCCN1CCCC1)C(=O)C(=O)c1ccccc1-2 [Example 57, 2-isopropyl-3-(3-(pyrrolidin-1-yl)propyl)-3H-naphtho[2,1-d]imidazole-4,5-dione] | 75.7 nmol cytochrome C reduced/min/μg protein
4 | CC(C)c1nc2c(n1CCCCl)C(=O)C(=O)c1ccccc1-2 [Example 55, 3-(3-chloropropyl)-2-isopropyl-3H-naphtho[2,1-d]imidazole-4,5-dione] | 139.8 nmol cytochrome C reduced/min/μg protein
